Protein sequences, listed by entry. Tags and fused reporters are not part of them.
UniProt Q00788, whole entry: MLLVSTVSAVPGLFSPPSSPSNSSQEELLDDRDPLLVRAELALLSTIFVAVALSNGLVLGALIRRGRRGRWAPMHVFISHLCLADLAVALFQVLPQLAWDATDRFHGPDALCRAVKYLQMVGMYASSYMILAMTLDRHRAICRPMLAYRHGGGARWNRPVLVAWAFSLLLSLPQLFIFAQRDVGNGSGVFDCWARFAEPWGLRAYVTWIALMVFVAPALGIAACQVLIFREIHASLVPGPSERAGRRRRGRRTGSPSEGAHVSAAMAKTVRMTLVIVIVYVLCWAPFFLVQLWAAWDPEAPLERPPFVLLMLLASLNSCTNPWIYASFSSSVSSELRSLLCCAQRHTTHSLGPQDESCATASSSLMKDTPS
UniProt P30518, whole entry: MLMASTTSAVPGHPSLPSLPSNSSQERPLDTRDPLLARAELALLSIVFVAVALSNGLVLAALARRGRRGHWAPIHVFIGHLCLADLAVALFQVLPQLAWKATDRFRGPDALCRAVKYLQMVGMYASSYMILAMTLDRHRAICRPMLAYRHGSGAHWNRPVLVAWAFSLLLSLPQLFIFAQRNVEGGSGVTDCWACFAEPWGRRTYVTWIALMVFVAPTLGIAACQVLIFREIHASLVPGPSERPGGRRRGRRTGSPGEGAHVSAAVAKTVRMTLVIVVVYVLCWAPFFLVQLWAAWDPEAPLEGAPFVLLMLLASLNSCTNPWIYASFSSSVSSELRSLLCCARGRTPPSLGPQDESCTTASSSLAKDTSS

According to patent US20100311642A1, “USE OF V2 RECEPTOR ANTAGONISTS IN COMBINATION WITH VASO PRESSINERGIC AGNOSTS” (Ferring B.V., priority 2007, published 2010):

Experiments:
rat V2 receptor (rV2R) = target: T1, rat V2 receptor (rV2R) (Rattus norvegicus, UniProt Q00788); test: Agonist transcriptional reporter gene assay, rat V2 receptor; format: cell-based
T1 construct: expressed in transfected cells; host or cells: HEK-293

human V2 receptor (hV2R) = target: T2, human V2 receptor (hV2R) (Homo sapiens, UniProt P30518); test: Antagonist transcriptional reporter gene assay, human V2 receptor; format: cell-based; conditions: hV2, HEK-293 reporter gene, vs AVP; Ki calculated from IC50; read-out: Geomean Ki
T2 construct: expressed in transfected cells; host or cells: HEK-293
Protocol: Agonist activity of compounds on the human V2 receptor (hV2R) and the rat V2 receptor (rV2R) was determined in a transcriptional reporter gene assay in which HEK-293 cells were transiently transfected with either the human or rat V2 receptor, and a reporter DNA containing cyclic-AMP responsive promoter elements regulating expression of firefly luciferase. See Castarion, M. J., Spevak, W., Biochem Biophys Res Commun.1994 Jan.
Antagonist activity of compounds on the human V2 receptor (hV2R) and the rat V2 receptor (rV2R) was determined in a transcriptional reporter gene assay as in section III.A; see Castañón, M. J. et al. supra. […] Ki values were calculated from IC50 values.

| Ki (human V2 receptor (hV2R)) [nM] | SMILES | EC50 (rat V2 receptor (rV2R)) [nM] |
| --- | --- | --- |
| – | NC(=O)CC[C@@H]1NC(=O)[C@H](Cc2ccccc2)NC(=O)[C@H](Cc2ccc(O)cc2)NC(=O)[C@@H](N)CSSC[C@@H](C(=O)N2CCC[C@H]2C(=O)N[C@@H](CCCN=C(N)N)C(=O)NCC(N)=O)NC(=O)[C@H](CC(N)=O)NC1=O [Arginine vasopressin, AVP, arginine vasopressin] | 0.03 |
| 2.7 | Cc1ccccc1C(=O)Nc1ccc(C(=O)N2CCCC(O)c3cc(Cl)ccc32)c(C)c1 (centres unmarked) [tolvaptan] | – |
